The values below come from PubChem BioAssay AID1509 (The Scripps Research Institute Molecular Screening Center, 2009).

Protein sequences, listed by entry. Tags and fused reporters are not part of them.
UniProt O95977, whole entry: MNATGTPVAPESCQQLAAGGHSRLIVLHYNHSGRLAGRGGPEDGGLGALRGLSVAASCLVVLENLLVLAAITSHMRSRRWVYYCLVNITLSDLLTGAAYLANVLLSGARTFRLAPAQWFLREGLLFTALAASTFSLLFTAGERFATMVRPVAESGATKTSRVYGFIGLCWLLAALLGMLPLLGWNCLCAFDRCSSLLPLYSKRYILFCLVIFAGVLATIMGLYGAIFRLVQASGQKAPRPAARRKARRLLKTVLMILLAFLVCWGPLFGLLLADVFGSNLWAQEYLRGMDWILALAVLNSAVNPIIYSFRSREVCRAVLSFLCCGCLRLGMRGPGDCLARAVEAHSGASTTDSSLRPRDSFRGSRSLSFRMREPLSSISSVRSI

Structures are written as SMILES. This is a selection; strong and weak results do not stand in their true shares. Calls of active or inactive are those of the source. Cut-off read from the data, not from the text of the source: active = activation above about 11%; inactive = the rest.

This assay addresses Sphingosine 1-phosphate receptor 4 (Homo sapiens) (UniProt O95977). As to the kind of experiment: activators of human S1P4 receptor – cell-based, primary screen (AID 1509).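 Note: 0% = DMSO vehicle and 100% = reference agonist.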 To be noted: S1P4-expressing cell line, agonist reporter assay; at 4.98 µM; active compounds read high. (Reporter assays use an easily measured gene product as a stand-in for the process of interest.)
Regarding `CP(=O)(Nc1cccc(Br)c1)Oc1ccccc1` (stereo not given), the activation was inactive: 0.69%.
As for `Cc1cc(C)cc(OP(C)(=O)Nc2ccccn2)c1` (stereo not given), the figure is inactive: 1.75%.
As for `O=[N+]([O-])c1cc([N+](=O)[O-])c(-n2nnc3ccccc32)c([N+](=O)[O-])c1`, the figure is inactive: 1.39%.
The result for `Cc1nc2ccc3ccccc3c2s1.O=[N+]([O-])c1cc([N+](=O)[O-])c(O)c([N+](=O)[O-])c1` reads inactive: -0.7%; that for `CCOC(=O)C(CC)C1=NC(C)(C)Cc2ccccc21.O=[N+]([O-])c1cc([N+](=O)[O-])c(O)c([N+](=O)[O-])c1` (stereo not given), inactive: 1.4%; that for `O=[N+]([O-])c1cc([N+](=O)[O-])c(Nc2nnnn2CCO)c([N+](=O)[O-])c1`, inactive: -0.49%.
`CP(=O)(Nc1ccc(SC(F)(F)F)cc1)Oc1ccccc1` (stereo not given): the activation was inactive: -0.64%.
The result for `CCCOc1ccc(NP(C)(=O)Oc2ccc(Cl)cc2)cc1` (stereo not given) reads inactive: -3.54%; that for `COc1ccccc1OP(C)(=O)Nc1c(C)cccc1C` (stereo not given), inactive: -1.48%; that for `CN1CCCCC1COC(=O)C1(O)c2ccccc2CCc2ccccc21` (stereo not given), inactive: -2.73%.
The result for `CN(C)CCOC(=O)C(O)(c1ccccc1)C1CCCCC1` (stereo not given) reads inactive: -1.54%; that for `COc1ccc(NP(C)(=O)Oc2ccccc2OC)cc1` (stereo not given), inactive: 1.23%; that for `COc1ccc(OP(C)(=O)Nc2cccc(Br)c2)cc1` (stereo not given), inactive: 2.71%.
In the case of `O=[N+]([O-])c1ccc(OP2(=O)COCCO2)cc1` (stereo not given), the activation was inactive: -0.25%.
Take `Cc1cc(-c2cccc3ccccc23)c(C)cn1.O=[N+]([O-])c1cc([N+](=O)[O-])c(O)c([N+](=O)[O-])c1`: the activation is inactive: -2.69%.
The result for `O=[N+]([O-])c1cc([N+](=O)[O-])c(NCC2CCS(=O)(=O)C2)c([N+](=O)[O-])c1` (stereo not given) reads inactive: -1.12%; that for `CCOP(C)(=S)SCC(=O)NC(C)(CC)C(=O)O` (stereo not given), inactive: 2.97%.
The result for `CP(=O)(Nc1ccc(SC(F)(F)F)cc1)Oc1ccc(F)cc1` (stereo not given) reads inactive: -0.32%.
The result for `Cc1ccccc1NP(C)(=O)Nc1ccccc1C` reads inactive: 1.45%.
As for `CP(=O)(Nc1ccc2c(c1)OCCO2)Oc1ccccc1` (stereo not given), the activation is inactive: 0.56%.
The result for `CP(=O)(Nc1ccccc1F)Oc1ccccc1` (stereo not given) reads inactive: -0.45%; that for `CC(C)c1ccc(OP(C)(=O)Nc2ccc(SC(F)(F)F)cc2)cc1` (stereo not given), inactive: -1.72%; that for `O=C(OC1CN2CCC1CC2)c1ccc([N+](=O)[O-])cc1` (stereo not given), inactive: 2.01%.
The result for `O=C(OCCN1CCN(CCOCc2ccccc2)CC1)C(O)(c1ccccc1)c1ccccc1` reads inactive: 2.32%; that for `CCOC(=O)c1ccc(NP(C)(=O)Oc2ccc(F)cc2)cc1` (stereo not given), inactive: -0.38%.
As for `COc1ccc(OP(C)(=O)Nc2ccc(SC(F)(F)F)cc2)cc1` (stereo not given), the figure is inactive: 1.27%; as for `CP(=O)(Nc1ccccc1)Oc1ccc(F)cc1` (stereo not given), inactive: 0.18%; as for `CCCCCOc1ccc(NP(C)(=O)Oc2ccc(Cl)cc2Cl)cc1` (stereo not given), inactive: -1.31%.
For `CCN(CC)CCCOC(=O)C(O)(c1ccccc1)C1CCCCC1` (stereo not given), the activation is inactive: 1.39%.
As for `COc1ccccc1OP(C)(=O)Nc1ccc(C)c(C)c1` (stereo not given), the figure is inactive: 0.78%; as for `COc1ccc(OP(C)(=O)Nc2ccccc2Br)cc1` (stereo not given), inactive: 2.21%.
For the molecule `Cc1cc(C)cc(OP(C)(=O)Nc2cccc(C(F)(F)F)c2)c1` (stereo not given), the activation is inactive: 0.14%.
As for `CP(=O)(OCCOc1ccccc1)OCCOc1ccccc1`, the figure is inactive: -0.72%; as for `CP(=O)(Nc1ccc(Cl)cc1Cl)Oc1ccccc1` (stereo not given), inactive: -0.67%; as for `Cc1nc2ccc3ccccc3c2o1.O=[N+]([O-])c1cc([N+](=O)[O-])c(O)c([N+](=O)[O-])c1`, inactive: -1.7%.
The result for `COc1ccc(OP(C)(=O)Nc2ccccn2)cc1` (stereo not given) reads inactive: -2.02%.
As for `CN(C)CCOC(=O)C(O)(c1ccccc1)C1CCCC1` (stereo not given), the figure is inactive: -3.37%; as for `COc1ccccc1OP(C)(=O)Nc1ccc(Br)cc1` (stereo not given), inactive: 0.1%; as for `COc1ccccc1OP(C)(=O)Nc1ccc(C)cc1C` (stereo not given), inactive: -2.18%.
As to `CP(=O)(Nc1ccccn1)Oc1ccccc1` (stereo not given), the activation is inactive: -0.48%.
The result for `CCc1ccc(OP(C)(=O)O)cc1` reads inactive: -1.96%; that for `O=[N+]([O-])c1cc([N+](=O)[O-])c(Nc2ccccn2)c([N+](=O)[O-])c1`, inactive: -0.63%; that for `Cc1c(NP(C)(=O)Oc2ccc(C(C)C)cc2)c(=O)n(-c2ccccc2)n1C` (stereo not given), inactive: -0.52%.
The result for `O=C(OCCCN1CCCC1)C(O)(c1ccccc1)C1CCCCC1` (stereo not given) reads inactive: 0.76%.
The result for `COc1ccccc1OP(C)(=O)Nc1c(C)n(C)n(-c2ccccc2)c1=O` (stereo not given) reads inactive: -0.26%; that for `CCc1ccc(OP(C)(=O)Nc2cccnc2)cc1` (stereo not given), inactive: -0.19%.
As for `CP(=O)(Oc1ccccc1)N1CCOC1=O` (stereo not given), the activation was inactive: 0.06%.
The result for `COc1ccc(OP(C)(=O)Nc2ccc(Br)cc2)cc1` (stereo not given) reads inactive: 0.11%; that for `CCN(CC)CC(O)COC(=O)C(O)(c1ccccc1)C1CCCCC1` (stereo not given), inactive: 1.33%.
As for `CN(C)C(=O)c1c([N+](=O)[O-])cc([N+](=O)[O-])cc1[N+](=O)[O-]`, the figure is inactive: 1.42%.
The result for `CC(C)(C)c1ccc(OP(C)(=O)O)cc1` reads inactive: -0.78%; that for `COc1ccccc1OP(C)(=O)Nc1ccccc1Br` (stereo not given), inactive: -0.8%.
Consider `CP(=O)(Nc1ccc(Cl)cc1)Oc1ccc(F)cc1` (stereo not given), for which the activation was inactive: -0.26%.
As for `CCOC(=O)c1ccc(NP(C)(=O)Oc2ccc(Cl)cc2)cc1` (stereo not given), the figure is inactive: 0.09%; as for `CP(=O)(OC12CC3CC(CC(C3)C1)C2)OC12CC3CC(CC(C3)C1)C2`, inactive: 3.13%.
